# Values of other authors in patent publication US20110200554A1, “THERAPEUTIC AGENT FOR HEPATITIS C” (priority 2008, published 2011).
# Conditions: human, permissible dose 800 mg/mm^2 per oral administration every 4 hours; cited from earlier work
substance,measurement,value
hydroxyurea [HU],blood HU level,2480 µmol/L
